# Test results as given in PubChem BioAssay AID602197 (NMMLSC, 2012).
# The list shows a part of the results, in another mix than the full data. Calls of active or inactive are those of the source. Rule as the data show it: active = response above about 24%; inactive = the rest.
# Assay: yeast V-ATPase proton pumping modulators, confirmation, S. cerevisiae, pH-sensitive GFP, second cherry-pick (AID 602197);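 also: plate controls were vehicle wells for no effect and positive control wells for full effect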
# Conditions: S. cerevisiae pHLuorin cytosolic pH, V-ATPase proton transport; at 10 µM; stronger effect = higher value
smiles,measurement,value
O=P(Nc1ccccn1)(c1ccc(Br)cc1)c1ccc(Br)cc1,response,inactive: 1.85%
